Test results taken from patent US7452997B2 (priority 2004, dated 2008).

By UniProt entry, the sequences of proteins in these tests, tags left out.
UniProt P34972, whole entry: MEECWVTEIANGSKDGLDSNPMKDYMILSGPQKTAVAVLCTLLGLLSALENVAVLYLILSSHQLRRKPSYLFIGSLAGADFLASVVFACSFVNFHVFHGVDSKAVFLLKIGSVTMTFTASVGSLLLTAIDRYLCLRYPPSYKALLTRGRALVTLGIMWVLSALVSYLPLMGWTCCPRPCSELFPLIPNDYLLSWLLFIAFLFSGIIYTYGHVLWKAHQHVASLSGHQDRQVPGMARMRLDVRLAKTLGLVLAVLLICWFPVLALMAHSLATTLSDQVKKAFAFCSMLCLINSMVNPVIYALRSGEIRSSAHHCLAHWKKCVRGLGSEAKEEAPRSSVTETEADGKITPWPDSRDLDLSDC
UniProt P21554, whole entry: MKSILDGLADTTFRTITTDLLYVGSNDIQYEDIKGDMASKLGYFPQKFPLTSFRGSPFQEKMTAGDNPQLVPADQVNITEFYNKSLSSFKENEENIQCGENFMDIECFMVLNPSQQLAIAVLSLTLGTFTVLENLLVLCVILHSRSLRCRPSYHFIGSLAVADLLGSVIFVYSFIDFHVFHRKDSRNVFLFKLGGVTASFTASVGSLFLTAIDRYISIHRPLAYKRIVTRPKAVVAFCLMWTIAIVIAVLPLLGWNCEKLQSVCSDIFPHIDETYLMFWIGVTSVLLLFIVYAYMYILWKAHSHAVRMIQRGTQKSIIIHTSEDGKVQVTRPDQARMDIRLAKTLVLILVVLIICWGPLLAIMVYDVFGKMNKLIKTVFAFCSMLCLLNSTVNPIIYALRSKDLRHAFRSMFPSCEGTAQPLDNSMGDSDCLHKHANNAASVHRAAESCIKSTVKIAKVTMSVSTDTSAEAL

Assays:
human CB2 receptor = human CB2 receptor (Homo sapiens, UniProt P34972); test: Binding assay, cannabinoid CB2 receptor ([3H]-CP-55,940 displacement); details: read-out: Cannabinoid CB2 Receptor Binding IC50, SK-N-MC cell membranes, radioligand CP-55,940 0.2 nM
Protocol: Binding Assay for CB1 or CB2 Agonists or Inverse Agonists
The human CB1 and CB2 receptors were stably expressed in SK-N-MC cells transfected with pcDNA3 CB-1 (human) or pcDNA3 CB-2 (human). The cells were grown in T-180 cell culture flasks under standard cell culture conditions at 37° C. in a 5% CO2 atmosphere. The cells were harvested by trysinization and homogenized in a homogenization buffer (10 mM Tris, 0.2 mM MgCl2, 5 mM KCl, with protease inhibitors aprotinin, leupeptin, pepstatin A and bacitracin) and centrifuged (2000 g). The supernatant was then centrifuged in 2M sucrose (31,300 g) to produce a semi-purified membrane pellet. The pellet was resuspended in homogenization and store at −80° C.
On the day of the assay, the pellet was thawed on ice and diluted in assay buffer (50 mM Tris-HCl, 5 mM MgCl2, 2.5 mM EDTA, 0.5 mg/mL fatty acid free bovine serum albumin, pH 7.5). The diluted membrane was added with buffer, test compound or standard and the radioligand [H]^3+-CP-55,940_(0.2 nM) to the wells of a 96-well polypropylene plate. Non-specific binding was measured in wells containing 10 uM WIN 55,212. The plate was covered and incubated for 90 minutes at 30° C. The contents were then aspirated onto a Packard UNIFILTER GF/C filter bottom plate prewet with 0.5% polyethyleneimine. The wells of the polypropylene plate were rinsed and aspirated seven times with a 0.9% saline-0.5% TWEEN 20 solution. The UNIFILTER plate was dried, a scintillation cocktail was added to each well and the counts representing binding were quantitated in a TOPCOUNT scintillation counter.
The IC50 binding values for compounds tested were calculated by linear regression and were obtained from studies in which varying compound concentrations were used.

human CB1 receptor [1] = target: T1, human CB1 receptor (Homo sapiens, UniProt P21554); details: read-out: Cannabinoid CB1 Receptor Binding IC50, SK-N-MC cell membranes, radioligand CP-55,940 0.2 nM
human CB1 receptor [2] = target: T1, human CB1 receptor; test: Functional cell-based assay, CB1 receptor mediated change in CRE β-gal expression (agonist / inverse agonist); details: read-out: CB1 Receptor Functional Inverse Agonist EC50, SK-N-MC cells, forskolin

Which results are given for `CC1(C)C2CCC(CNC(=O)c3nn(-c4cccc(F)c4)c4c3CCCC4)C1C2` (centres unmarked)?
IC50 (human CB2 receptor): 13 nM; IC50 (human CB1 receptor [1]): 114 nM

With `Cc1ccc(S(=O)(=O)Nc2nn(C3CCCCC3)c3c2CCCC3)cc1` as the compound, how does the IC50 (human CB2 receptor) read?
Its IC50 is 2700 nM.

What about the IC50 (human CB1 receptor [1]) of the same compound?
The IC50 was 45000 nM.

How did the IC50 (human CB2 receptor) turn out when `O=C(NC1C2CCC(C2)C1C(=O)O)c1nn(C2CCCCC2)c2c1CCCC2` (centres unmarked) was run?
Its IC50 is 4880 nM.

And the IC50 (human CB1 receptor [1])?
Its IC50 is 22600 nM.

With `CC12CCC(C1)C(C)(C)C2NC(=O)c1nn(C2CCCCC2)c2c1CCCC2` (centres unmarked) as the compound, how does the IC50 (human CB2 receptor) read?
Its IC50 is 3 nM.

And the IC50 (human CB1 receptor [1])?
The IC50 was 108 nM.

With `O=C(NN1CCCCCC1)c1nn(-c2ccc(Cl)cc2Cl)c2c1CCCC2` as the compound, how does the IC50 (human CB2 receptor) read?
The IC50 was 300 nM.

And the IC50 (human CB1 receptor [1])?
Its IC50 is 400 nM.

`CC1(C)C2CCC(CNC(=O)c3nn(-c4ccccc4F)c4c3CCCC4)C1C2` (centres unmarked) was tested. Which IC50 (human CB2 receptor) did it give?
Its IC50 is 4.5 nM.

What about the IC50 (human CB1 receptor [1]) of the same compound?
Its IC50 is 168 nM.

`OCC1C2CCC(C2)C1NCc1nn(C2CCCCC2)c2c1CCCC2` (centres unmarked) was tested. Which IC50 (human CB2 receptor) did it give?
The IC50 was 9410 nM.

What does the source list for `CCN(C(=O)c1nn(-c2ccc(OC)cc2)c2c1CCCC2)c1ccccc1OC`?
EC50 (human CB1 receptor [2]): 1510 nM; IC50 (human CB2 receptor): 1570 nM

Which results are given for `CC1(C)C2CCC(CNC(=O)c3nn(-c4ccc(F)cc4)c4c3CCCC4)C1C2` (centres unmarked)?
IC50 (human CB2 receptor): 30.9 nM; IC50 (human CB1 receptor [1]): 216 nM
